Results published in patent US20040171659A1, “Methods for treating diabetes” (priority 2002, published 2004).

By UniProt entry, the sequences of proteins in these tests, tags left out.
UniProt Q16539, whole entry: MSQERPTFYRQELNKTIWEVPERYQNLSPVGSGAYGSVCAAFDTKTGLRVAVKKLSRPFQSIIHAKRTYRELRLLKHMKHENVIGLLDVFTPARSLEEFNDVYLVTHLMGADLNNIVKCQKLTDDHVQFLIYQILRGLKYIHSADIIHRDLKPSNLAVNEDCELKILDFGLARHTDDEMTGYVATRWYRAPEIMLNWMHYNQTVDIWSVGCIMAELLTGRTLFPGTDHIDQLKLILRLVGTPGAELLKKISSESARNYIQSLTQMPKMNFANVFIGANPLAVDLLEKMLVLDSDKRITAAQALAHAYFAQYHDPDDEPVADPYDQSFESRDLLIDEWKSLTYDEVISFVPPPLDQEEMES

Columns and labels:
NOD mice [1] = test: Example 2: incidence of diabetes and HSP 60 expression in NOD mice
[2] = test system: severely hyperglycemic NOD mice; test: Studies on severely hyperglycemic NOD mice, 17 days; conditions: high dose
NOD mice [3] = test: Preventive studies in pre-diabetic NOD mice, 10 weeks of treatment in the diet; conditions: for Diabetes incidence at 18 weeks: diabetes = blood glucose greater than 120 mg/dl, vehicle 60%
[4] = test system: mildly hyperglycemic NOD mice; test: Fasting blood glucose and glucose tolerance studies in mildly hyperglycemic NOD mice
[5] = p38 MAP kinase inhibitor in serum samples by LC/MS/MS; conditions: during the study period
p38 MAPK = p38 MAPK (Homo sapiens, UniProt Q16539); test: phosphorylation assay of p38 MAPK activity (see Kumar); type: biochemical; conditions: read-out: IC50 value as quantitated according to Kumar; criterion met by the inhibitor used in the experiments
[6] = test system: mildly hyperglycemic NOD mice; test: Therapeutic studies on mildly hyperglycemic NOD mice, 17 days
[7] = 600 mg/kg in feed, 13 and 18 weeks

Q: What does the source list for `COc1cc2c(cc1C(=O)N1CCC(Cc3ccc(F)cc3)CC1)c(C(=O)C(=O)N(C)C)cn2C`?
A: Blood glucose levels (NOD mice [1]; [7]): lowered blood glucose levels; Development of Type-1 diabetes (percent incidence) (NOD mice [1]; [7]): prevented the development of Type-1 diabetes; HSP60 expression in pancreata (immunohistochemistry) (NOD mice [1]; 13 and 18 weeks): reduced HSP60 expression; Percent of HSP 60 positive lymphocytes in pancreatic islets (NOD mice [1]; week 13 and 18): reduced levels expression of HSP 60; Blood glucose [2]: no effect; Body weight [2]: no effect; Serum insulin levels [2]: no effect; Body weight loss (NOD mice [3]; 10 weeks, vs. vehicle group): significantly reduced body weight loss; Onset of diabetes (NOD mice [3]; blood glucose greater than 120 mg/dl, p<0.01 vs. vehicle): dose-dependent delay in the onset of diabetes; Blood glucose levels (NOD mice [3]; both dose groups, vs. vehicle group): significantly lowered blood glucose levels; Serum insulin levels (NOD mice [3]; both dose groups, increase significant at high dose): increased serum insulin levels; Insulitis scores (NOD mice [3]; both doses, p<0.05 vs. vehicle): suppressed insulitis scores; Ratio of CD+4 and CD+8 T cells (NOD mice [3]; high dose, 10 weeks): without affecting their ratio; CD+4 and CD+8 T cells infiltration into the beta cells (NOD mice [3]; high dose, 10 weeks, immunohistochemistry): remarkably suppressed; p38 expression in the T cells infiltrated into the beta cells (NOD mice [3]; high dose, 10 weeks, p<0.001 vs. vehicle): significantly decreased; Diabetes incidence at 18 weeks (NOD mice [3]; high dose): 10%; Lymphocyte infiltration of pancreata (H&E histology) (NOD mice [3]; low and high doses, after 10 weeks): only minor lymphocyte infiltration; Diabetes incidence at 18 weeks (NOD mice [3]; low dose): 30%; Oral glucose tolerance ([4]; 17 days, oral glucose challenge 2 g/kg, p<0.05 vs. vehicle): improved glucose tolerance; Fasting blood glucose levels ([4]; high dose, day 17, p<0.05 vs. vehicle): lower fasting blood glucose levels; Glucose tolerance at 30 minutes of the test ([4]; high dose, p<0.001 vs. vehicle): highly significant improvement in glucose tolerance; p38 MAP kinase inhibitor in the serum ([5]; high dose group): 1.8 µM; p38 MAP kinase inhibitor in the serum ([5]; low dose group): 0.6 µM; IC50 (p38 MAPK): ≤ 5 µM; Weight loss ([6]; 17 days, p<0.05 vs. vehicle): decrease in weight loss; Insulin levels ([6]; 17 days, vs. vehicle): higher insulin levels; Development of hyperglycemia (blood glucose) ([6]; low and high dose, by day 17): dose-dependently prevented the development of hyperglycemia
